Measured values from ChEMBL document CHEMBL1153777, “Substituted benzothiadizine inhibitors of Hepatitis C virus polymerase” (Bioorg Med Chem Lett, 2009).

Organism: Homo sapiens
Assay: Protein binding in human plasma by equilibrium dialysis
Conditions: read-out: PPB

fraction unbound: 0.001
Structure (SMILES): O=c1c(C2=Nc3ccccc3S(=O)(=O)N2)c(O)c2cc(F)ccc2n1CCC1CC1
